For test [1], the target named is Shp1-C455S mutant (human). The test is described as follows: co-IP; 2 ug anti-Shp1 antibody added to 1 mg lysate of serum-starved NIH3T3 cells over-expressing Shp1 WT or mutant, overnight at 4 C, protein A or G beads; cells untreated or treated with 50 uM GroPIns4P for 5 min; Src detected by western blot and normalised to immunoprecipitated Shp1. For orientation: In western blotting, separated proteins are transferred to a membrane and probed.

By UniProt entry, the sequences of proteins in these tests, tags left out. Chains listed by the source or under a name are the forms on record and can include a tag or linker.
UniProt P29350, other isoform, or with tags, fused parts or gaps: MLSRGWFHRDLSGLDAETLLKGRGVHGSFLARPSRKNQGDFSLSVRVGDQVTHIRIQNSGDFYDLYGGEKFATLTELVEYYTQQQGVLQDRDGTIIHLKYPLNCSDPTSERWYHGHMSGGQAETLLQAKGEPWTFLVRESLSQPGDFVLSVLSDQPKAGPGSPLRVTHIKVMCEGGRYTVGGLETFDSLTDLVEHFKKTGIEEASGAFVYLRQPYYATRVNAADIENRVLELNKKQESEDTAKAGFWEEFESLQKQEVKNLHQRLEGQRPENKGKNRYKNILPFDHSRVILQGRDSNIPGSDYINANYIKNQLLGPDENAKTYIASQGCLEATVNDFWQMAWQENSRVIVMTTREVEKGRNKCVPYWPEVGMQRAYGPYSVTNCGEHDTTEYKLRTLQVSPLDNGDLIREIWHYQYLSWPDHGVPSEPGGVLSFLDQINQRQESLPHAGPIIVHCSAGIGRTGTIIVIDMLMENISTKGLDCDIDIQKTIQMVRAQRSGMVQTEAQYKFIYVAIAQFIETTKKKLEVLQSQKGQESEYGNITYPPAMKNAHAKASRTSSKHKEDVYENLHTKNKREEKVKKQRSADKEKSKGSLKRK

Test [2] concerns the target cyan fluorescent protein (CFP)-labelled construct of Shp1 (Shp1-CFP) (human) (UniProt P29350). Nature of the test: FRET or BRET; acceptor photobleaching FRET (apFRET), confocal microscope, serum-starved NIH3T3 cells co-transfected with Shp1-CFP and Src-YFP for 24 h, treated with 50 uM GroPIns4P for 5 min.

On to “Src (from UniProt P05480-2 1-535) (enzyme)”, for which the fold increase of the interaction with 50 uM GroPIns4P against the untreated control in test [1] came to 2.2 fold.

In test [2], “yellow fluorescent protein (YFP)-conjugated Src (Src-YFP) (from UniProt P12931 1-536) (enzyme; other documents disagree on this pair)” had an FRET efficiency in hot spots of the lamellar regions, with 50 uM GroPIns4P of over 20% and an FRET efficiency, average over the cell, with 50 uM GroPIns4P of 9%.

Source of the values: article PMC6396489, “A signalling cascade involving receptor-activated phospholipase A2, glycerophosphoinositol 4-phosphate, Shp1 and Src in the activation of cell motility” (Cell Communication and Signaling : CCS, 2019).
